Test system: DOT-T1E-PhoA5 mutant
Assay: Halo-inhibition test with antibiotic disks on minimal medium
Format: cell-based, Pseudomonas putida
Settings: for tolerance/sensitivity to antibiotic: mutant, Halo-inhibition test; for size of the inhibition halo: strain PhoA5, 6-mm disks, µg per disk as, minimal medium

Molecule | tolerance/sensitivity to antibiotic | size of the inhibition halo
C[C@@H](O)[C@H]1C(=O)N2C(C(=O)O)=C(SCCN=CN)C[C@H]12 [IPM, imipenen] | sensitive | 45 mm
CCn1cc(C(=O)O)c(=O)c2ccc(C)nc21 [NA, nalidixic acid] | equally sensitive | 15 mm
CN[C@H](CC(C)C)C(=O)N[C@H]1C(=O)N[C@@H](CC(N)=O)C(=O)N[C@H]2C(=O)N[C@H]3C(=O)N[C@H](C(=O)N[C@H](C(=O)O)c4cc(O)cc(O)c4-c4cc3ccc4O)[C@H](O)c3ccc(c(Cl)c3)Oc3cc2cc(c3O[C@@H]2O[C@H](CO)[C@@H](O)[C@H](O)[C@H]2O[C@H]2C[C@](C)(N)[C@H](O)[C@H](C)O2)Oc2ccc(cc2Cl)[C@H]1O [vancomycin] | tolerant | –
CC[C@H]1OC(=O)[C@H](C)[C@@H](O[C@H]2C[C@@](C)(OC)[C@@H](O)[C@H](C)O2)[C@H](C)[C@@H](O[C@@H]2O[C@H](C)C[C@H](N(C)C)[C@H]2O)[C@](C)(O)C[C@@H](C)C(=O)[C@H](C)[C@@H](O)[C@]1(C)O [erythromycin] | tolerant | –
CC1(C)S[C@@H]2[C@H](NC(=O)[C@H](N)c3ccccc3)C(=O)N2[C@H]1C(=O)O [ampicillin] | tolerant | –
CCN1CCN(C(=O)N[C@@H](C(=O)N[C@@H]2C(=O)N3[C@@H]2SC(C)(C)[C@@H]3C(=O)O)c2ccccc2)C(=O)C1=O [PIP, piperacillin] | equally sensitive | 19 mm
gentamycin [GM] | equally sensitive | 16 mm
CO/N=C(\C(=O)N[C@@H]1C(=O)N2C(C(=O)O)=C(COC(C)=O)CS[C@H]12)c1csc(N)n1 [CTX, cefotaxime] | sensitive | 30 mm
O=C(N[C@H](CO)[C@H](O)c1ccc([N+](=O)[O-])cc1)C(Cl)Cl [CAM, chloramphenicol] | tolerant | –
CCn1cc(C(=O)O)c(=O)c2cc(F)c(N3CCNCC3)cc21 [NOR, norfloxacine] | sensitive | 30 mm
O=C(O)c1cn(C2CC2)c2cc(N3CCNCC3)c(F)cc2c1=O [CIP, ciprofloxacine] | sensitive | 40 mm
[H]/N=C(/N)N[C@H]1[C@H](O)[C@@H](O)[C@H](O[C@@H]2O[C@@H](C)[C@](O)(C=O)[C@H]2O[C@@H]2O[C@@H](CO)[C@H](O)[C@@H](O)[C@@H]2NC)[C@@H](N/C(N)=N\[H])[C@@H]1O [SM, streptomycin] | equally sensitive | –

Source: patent publication US7348421B1, “Methods for production of p-hydroxybenzoate in bacteria” (North Carolina State University, priority 2000, dated 2008)
